Values of other authors as cited in patent publication EP0987023A1, “Transition metal complexes of non steroidal anti-inflammatory drugs” (PANACEA BIOTEC LIMITED, priority 1998, dated 2000).

Key:
[1] = collected values of NSAIDs; cited from earlier work
[2] = system: Cyclooxygenase 2/Cyclooxygenase 1; details: cited from earlier work

CC(C)Cc1ccc(C(C)C(=O)O)cc1 (centres unmarked) [Ibuprofen]
Therapeutic Index [1]: 68 | Cyclooxygenase 2/Cyclooxygenase 1 ratio [2]: 15
